Source: US9592211B2, “Compositions for improvement of brain function” (GRESPO AB, priority 2012, dated 2017)

Test system: blood platelets, lymphocytes, eosinophils, monocytes
Test: Blood chemistry / hematological parameters, Example 3
Assay type: in vivo, Mongolian gerbils
Settings: old gerbils, end of 6 month feeding (FIG. 3C)

Structure (SMILES): O=C(O)CCC(=O)C(=O)O [AKG, alpha-ketoglutaric acid]
- eosinophile count: but not by AKG by itself or ENZ by itself
